PMC5970223, “Multiplexed profiling of GPCR activities by combining split TEV assays and EXT-based barcoded readouts” (Scientific Reports, 2018)

Sequences of proteins named here, by UniProt entry; tags and fusion partners are left off. A change or cut given only in a name is not applied to a line headed by its entry.
UniProt P30872: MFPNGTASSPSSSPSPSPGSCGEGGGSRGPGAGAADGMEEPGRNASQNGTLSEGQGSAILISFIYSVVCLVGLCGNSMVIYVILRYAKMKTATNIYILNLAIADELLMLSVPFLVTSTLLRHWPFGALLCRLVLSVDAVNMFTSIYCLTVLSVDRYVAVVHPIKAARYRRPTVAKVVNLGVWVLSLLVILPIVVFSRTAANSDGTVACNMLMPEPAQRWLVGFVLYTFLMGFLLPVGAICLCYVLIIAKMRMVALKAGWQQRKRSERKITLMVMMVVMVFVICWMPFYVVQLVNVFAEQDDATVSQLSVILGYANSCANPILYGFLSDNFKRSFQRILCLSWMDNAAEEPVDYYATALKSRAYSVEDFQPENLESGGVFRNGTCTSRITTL

Target: SSTR1-V2R-NTEV-tevS-GV (human) (UniProt P30872)

How did the β-arrestin2 recruitment to the receptor (split TEV, EXT barcode read-out, multiplexed, U2OS cells), fold change over unstimulated, somatostatin 100 pM to 100 µM turn out when Somatostatin (peptide) was run?
Its β-arrestin2 recruitment to the receptor (split TEV, EXT barcode read-out, multiplexed, U2OS cells), fold change over unstimulated, somatostatin 100 pM to 100 µM is 4 fold.
